Target: Phosphatidylinositol 4-phosphate 5-kinase type-1 gamma (Homo sapiens, UniProt O60331)
Assay: Binding affinity to wild-type human partial length PIP5K1C (M1 to T668 residues) expressed in mammalian expression system assessed as residual binding level at 1 uM by Kinomescan method relative to control

The chains behind the UniProt entries cited, without tags or fusion partners. Where a name states a change or a piece, a line headed by the entry shows the natural chain unless it says otherwise.
UniProt O60331: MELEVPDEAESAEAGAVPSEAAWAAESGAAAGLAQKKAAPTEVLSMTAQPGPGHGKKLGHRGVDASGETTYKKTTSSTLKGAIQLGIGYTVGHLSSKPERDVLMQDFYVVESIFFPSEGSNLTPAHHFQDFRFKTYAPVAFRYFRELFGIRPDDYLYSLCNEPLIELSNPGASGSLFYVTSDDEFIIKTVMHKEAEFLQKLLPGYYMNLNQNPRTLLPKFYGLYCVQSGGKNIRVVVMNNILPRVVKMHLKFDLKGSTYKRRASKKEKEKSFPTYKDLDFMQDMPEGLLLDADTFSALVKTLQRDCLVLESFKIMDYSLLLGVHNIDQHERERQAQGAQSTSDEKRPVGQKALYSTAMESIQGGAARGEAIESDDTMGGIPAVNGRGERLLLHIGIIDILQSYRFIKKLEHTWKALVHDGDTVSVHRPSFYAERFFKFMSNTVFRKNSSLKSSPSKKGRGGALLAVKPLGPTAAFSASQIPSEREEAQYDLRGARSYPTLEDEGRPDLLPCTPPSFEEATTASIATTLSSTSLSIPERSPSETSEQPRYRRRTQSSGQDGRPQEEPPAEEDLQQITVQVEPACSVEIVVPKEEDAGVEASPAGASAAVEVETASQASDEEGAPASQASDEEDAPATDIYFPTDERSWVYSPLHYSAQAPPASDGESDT

Compound `NC(=O)c1cnc(N2CCC[C@H](N)C2)nc1Nc1cccc(C(F)(F)F)c1` has an Activity of 8.1%.
